Test results reported in patent publication US20150320892A1, “IMAGING FIBROSIS” (GE Healthcare Limited, priority 2012, published 2015).

How the values were obtained:
[1] = Biodistribution of 99mTc-Compound 2 in naive rats; format: in vivo, Male Sprague-Dawley rats; conditions: rat, i.v., mean±SD, n=3
Experimental: Male Sprague-Dawley rats (231±10 g) were group housed in batches of four, with ad libitum access to food and water. Animals (n=12) were injected with ^99mTc-Compound 2 (0.3 mL, 4-5MBq/animal), as an intravenous bolus via the tail vein. At various times post injection (2, 30, 60 and 120 minutes) animals were euthanised (n=3 per timepoint), dissected.
Data above are presented as % injected dose (mean±SD; n=3 animals per timepoint).

[2] = 10% ethanol/50 mM phosphate buffer solution at 20 MBq/mL, over 3 hr

^99mTc-labelled (R)-(1-(2-(6-(4-((2-aminoethyl)amino)-3-(((2-aminoethyl)amino)methyl)butanamido)hexanamido)acetyl)pyrrolidin-2-yl)boronic acid [^99mTc-Compound 2]
% injected dose, Bladder/Urine ([1]; 2 minutes post injection): 0.10 ± 0.01 % injected dose | % injected dose, Blood ([1]; 2 minutes post injection): 13.62 % injected dose | % injected dose, Bone ([1]; 2 minutes post injection): 7.49 ± 0.79 % injected dose | % injected dose, Kidney ([1]; 2 minutes post injection): 9.32 ± 0.39 % injected dose | % injected dose, Liver ([1]; 2 minutes post injection): 2.28 ± 0.34 % injected dose | % injected dose, Plasma ([1]; 2 minutes post injection): 1.00 ± 0.14 % injected dose | % injected dose, Bladder/Urine ([1]; 30 minutes post injection): 18.56 ± 0.39 % injected dose | % injected dose, Blood ([1]; 30 minutes post injection): 4.87 ± 0.54 % injected dose | % injected dose, Bone ([1]; 30 minutes post injection): 5.03 ± 0.14 % injected dose | % injected dose, Kidney ([1]; 30 minutes post injection): 2.51 ± 0.27 % injected dose | % injected dose, Liver ([1]; 30 minutes post injection): 1.06 ± 0.12 % injected dose | % injected dose, Plasma ([1]; 30 minutes post injection): 0.39 ± 0.03 % injected dose | % injected dose, Bladder/Urine ([1]; 60 minutes post injection): 26.45 ± 1.97 % injected dose | % injected dose, Blood ([1]; 60 minutes post injection): 2.88 ± 0.07 % injected dose | % injected dose, Bone ([1]; 60 minutes post injection): 3.57 ± 0.08 % injected dose | % injected dose, Kidney ([1]; 60 minutes post injection): 2.49 ± 0.13 % injected dose | % injected dose, Liver ([1]; 60 minutes post injection): 0.79 ± 0.02 % injected dose | % injected dose, Plasma ([1]; 60 minutes post injection): 0.23 ± 0.01 % injected dose | % injected dose, Bladder/Urine ([1]; 120 minutes post injection): 33.11 ± 1.86 % injected dose | % injected dose, Blood ([1]; 120 minutes post injection): 1.80 ± 0.03 % injected dose | % injected dose, Bone ([1]; 120 minutes post injection): 2.82 ± 0.07 % injected dose | % injected dose, Kidney ([1]; 120 minutes post injection): 2.10 ± 0.33 % injected dose | % injected dose, Liver ([1]; 120 minutes post injection): 0.63 ± 0.05 % injected dose | % injected dose, Plasma ([1]; 120 minutes post injection): 0.13 ± 0.02 % injected dose | stability after formulation [2]: very stable
